In test [1] the target is LRRK2^RCKW (Homo sapiens, UniProt Q5S007). The test is described as follows: Biochemical LRRK2 activity assay (PhosphoSense, AssayQuant SOX peptide AQT0615). Particulars: Table S2, bound printed in μM under head IC50 [nM].
Test [2] deals with LRRK2^KW (Homo sapiens, UniProt Q5S007). The test is described as follows: DSF thermal stabilization of LRRK2^KW. As to conditions: 10 μM inhibitor. The test is classed as binding.

The chains behind the UniProt entries cited, without tags or fusion partners. Residues count along the entry.
UniProt Q5S007, 1327-2527 limits assumed: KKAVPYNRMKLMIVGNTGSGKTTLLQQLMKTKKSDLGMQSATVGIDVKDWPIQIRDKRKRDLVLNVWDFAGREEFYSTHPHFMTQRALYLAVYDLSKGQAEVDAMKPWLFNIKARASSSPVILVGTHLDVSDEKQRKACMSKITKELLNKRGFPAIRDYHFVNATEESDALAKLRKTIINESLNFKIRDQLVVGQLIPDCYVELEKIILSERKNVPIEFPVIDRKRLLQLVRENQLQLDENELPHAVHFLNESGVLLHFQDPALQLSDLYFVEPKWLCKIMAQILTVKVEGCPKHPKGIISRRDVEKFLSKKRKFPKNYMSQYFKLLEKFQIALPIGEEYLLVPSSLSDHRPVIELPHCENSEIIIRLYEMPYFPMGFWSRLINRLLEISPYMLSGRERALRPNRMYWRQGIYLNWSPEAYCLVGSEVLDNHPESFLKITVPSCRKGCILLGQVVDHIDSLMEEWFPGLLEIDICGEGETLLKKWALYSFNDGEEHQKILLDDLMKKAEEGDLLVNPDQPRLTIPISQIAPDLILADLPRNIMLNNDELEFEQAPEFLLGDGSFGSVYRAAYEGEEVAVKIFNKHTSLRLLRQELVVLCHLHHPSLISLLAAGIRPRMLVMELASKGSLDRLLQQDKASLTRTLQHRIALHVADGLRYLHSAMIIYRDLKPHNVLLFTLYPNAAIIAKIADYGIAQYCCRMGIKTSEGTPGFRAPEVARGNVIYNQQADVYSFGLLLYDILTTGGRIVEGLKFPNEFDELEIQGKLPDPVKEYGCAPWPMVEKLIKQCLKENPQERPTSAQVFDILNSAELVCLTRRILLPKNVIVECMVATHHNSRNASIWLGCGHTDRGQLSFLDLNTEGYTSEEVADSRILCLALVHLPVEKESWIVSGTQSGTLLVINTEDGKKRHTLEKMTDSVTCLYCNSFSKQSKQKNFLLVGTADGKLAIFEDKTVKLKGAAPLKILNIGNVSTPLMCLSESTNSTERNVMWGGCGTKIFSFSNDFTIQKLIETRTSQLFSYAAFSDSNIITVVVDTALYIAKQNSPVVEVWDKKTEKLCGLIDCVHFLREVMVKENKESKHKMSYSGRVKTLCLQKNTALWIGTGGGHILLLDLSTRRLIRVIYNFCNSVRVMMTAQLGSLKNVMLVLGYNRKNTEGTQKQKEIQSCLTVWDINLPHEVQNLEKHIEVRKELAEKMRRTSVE
UniProt Q5S007, 1847-2527 limits assumed: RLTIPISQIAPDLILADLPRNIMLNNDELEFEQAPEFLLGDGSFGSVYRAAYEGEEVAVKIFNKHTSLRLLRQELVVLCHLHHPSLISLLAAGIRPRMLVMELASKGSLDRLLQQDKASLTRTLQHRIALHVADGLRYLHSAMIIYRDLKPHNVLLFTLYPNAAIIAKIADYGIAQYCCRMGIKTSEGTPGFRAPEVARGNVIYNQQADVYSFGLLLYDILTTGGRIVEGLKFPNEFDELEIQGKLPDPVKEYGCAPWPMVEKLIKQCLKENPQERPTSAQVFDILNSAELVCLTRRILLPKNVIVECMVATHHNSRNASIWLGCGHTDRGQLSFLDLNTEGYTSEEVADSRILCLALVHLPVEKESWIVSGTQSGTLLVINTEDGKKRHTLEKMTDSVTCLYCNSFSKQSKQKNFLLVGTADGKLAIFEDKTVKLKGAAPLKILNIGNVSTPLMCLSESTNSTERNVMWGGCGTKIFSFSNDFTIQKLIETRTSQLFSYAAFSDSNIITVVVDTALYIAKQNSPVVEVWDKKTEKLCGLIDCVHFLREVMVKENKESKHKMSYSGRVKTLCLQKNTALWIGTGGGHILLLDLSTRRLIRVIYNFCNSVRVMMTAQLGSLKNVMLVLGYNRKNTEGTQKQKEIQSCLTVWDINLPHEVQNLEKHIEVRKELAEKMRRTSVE

Where only a bound is given, the exact number is not on record here.

The compound `O=C(Nc1ccc(F)cc1)C1(C(=O)Nc2ccc3cn[nH]c3c2)CC1` yielded an IC50 in test [1] of more than 15 µM. Besides, the “∆Tm (K)” value in test [2] is recorded as 1.0 K.

(Values after publication PMC12136037, “Type II kinase inhibitors that target Parkinson’s disease–associated LRRK2” (Science Advances, 2025).)
